# Values of other authors as cited in US20220072149A1, “BIOLOGICALLY ACTIVE CLUSTER OF MOLECULES” (priority 2018, published 2022).
# Settings: in monkeys; cited from earlier work
substance,measurement,value
ado-trastuzumab emtansine: conjugate of DM1 (emtansine) and trastuzumab,enhancement of the tolerable dose of DM1 by conjugation to trastuzumab,at least two-fold
